Experimental data from PubChem BioAssay (EPA / NIEHS).
The list shows a part of the results, in another mix than the full data. Records with an inconclusive call do not appear. Active and inactive are the calls of the source. The calls were made as follows, unless noted: active = hit-call score of the fitted dose curve at least 0.9, where 1 is the maximum; inactive = score below 0.9.

The chains behind the UniProt entries cited, without tags or fusion partners.
UniProt Q16656, whole entry: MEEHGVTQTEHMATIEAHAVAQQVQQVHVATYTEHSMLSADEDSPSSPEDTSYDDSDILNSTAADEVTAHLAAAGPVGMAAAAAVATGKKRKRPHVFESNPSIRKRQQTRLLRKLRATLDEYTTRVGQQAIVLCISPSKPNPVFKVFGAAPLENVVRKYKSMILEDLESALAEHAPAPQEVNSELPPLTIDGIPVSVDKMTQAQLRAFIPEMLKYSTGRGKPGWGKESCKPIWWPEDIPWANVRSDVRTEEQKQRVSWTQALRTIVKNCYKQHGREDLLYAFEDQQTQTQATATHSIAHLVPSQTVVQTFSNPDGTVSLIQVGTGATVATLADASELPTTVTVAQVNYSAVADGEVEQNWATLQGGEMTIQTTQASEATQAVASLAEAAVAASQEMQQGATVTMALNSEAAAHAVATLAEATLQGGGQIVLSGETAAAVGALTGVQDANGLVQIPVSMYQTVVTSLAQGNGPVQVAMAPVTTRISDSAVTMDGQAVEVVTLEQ
UniProt P01106, whole entry: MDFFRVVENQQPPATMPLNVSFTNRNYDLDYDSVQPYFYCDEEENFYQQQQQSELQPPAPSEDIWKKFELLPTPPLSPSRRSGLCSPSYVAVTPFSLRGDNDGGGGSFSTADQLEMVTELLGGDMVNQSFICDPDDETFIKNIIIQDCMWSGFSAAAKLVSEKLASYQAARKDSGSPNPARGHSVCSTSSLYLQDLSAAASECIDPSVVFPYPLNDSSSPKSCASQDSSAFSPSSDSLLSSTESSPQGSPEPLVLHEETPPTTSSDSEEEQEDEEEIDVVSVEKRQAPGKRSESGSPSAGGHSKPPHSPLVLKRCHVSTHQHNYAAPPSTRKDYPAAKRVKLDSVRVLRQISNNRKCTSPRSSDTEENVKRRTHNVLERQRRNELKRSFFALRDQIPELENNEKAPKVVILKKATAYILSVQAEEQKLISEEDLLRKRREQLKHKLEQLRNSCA
UniProt P04637, whole entry: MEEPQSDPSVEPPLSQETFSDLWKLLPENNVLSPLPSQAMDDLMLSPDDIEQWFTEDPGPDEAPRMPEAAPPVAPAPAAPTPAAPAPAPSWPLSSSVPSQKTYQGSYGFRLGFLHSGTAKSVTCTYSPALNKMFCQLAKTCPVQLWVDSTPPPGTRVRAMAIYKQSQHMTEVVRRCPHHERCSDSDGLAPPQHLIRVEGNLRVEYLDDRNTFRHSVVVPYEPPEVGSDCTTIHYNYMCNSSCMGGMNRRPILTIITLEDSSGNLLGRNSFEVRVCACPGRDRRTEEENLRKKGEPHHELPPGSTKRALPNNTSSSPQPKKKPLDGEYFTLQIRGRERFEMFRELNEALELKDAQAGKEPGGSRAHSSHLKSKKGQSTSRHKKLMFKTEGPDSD
UniProt Q07869, whole entry: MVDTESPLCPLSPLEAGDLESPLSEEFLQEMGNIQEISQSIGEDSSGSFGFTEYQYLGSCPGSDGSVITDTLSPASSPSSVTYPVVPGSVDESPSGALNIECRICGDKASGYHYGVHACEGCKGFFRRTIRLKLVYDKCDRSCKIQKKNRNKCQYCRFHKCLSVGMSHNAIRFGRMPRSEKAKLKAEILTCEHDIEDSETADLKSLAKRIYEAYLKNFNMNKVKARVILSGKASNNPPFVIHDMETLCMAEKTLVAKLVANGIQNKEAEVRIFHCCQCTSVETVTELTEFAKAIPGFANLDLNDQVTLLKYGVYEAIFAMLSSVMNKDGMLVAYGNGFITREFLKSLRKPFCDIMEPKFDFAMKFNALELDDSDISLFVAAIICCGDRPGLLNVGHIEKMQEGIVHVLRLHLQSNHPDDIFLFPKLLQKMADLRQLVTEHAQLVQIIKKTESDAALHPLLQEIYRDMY
UniProt Q03181, whole entry: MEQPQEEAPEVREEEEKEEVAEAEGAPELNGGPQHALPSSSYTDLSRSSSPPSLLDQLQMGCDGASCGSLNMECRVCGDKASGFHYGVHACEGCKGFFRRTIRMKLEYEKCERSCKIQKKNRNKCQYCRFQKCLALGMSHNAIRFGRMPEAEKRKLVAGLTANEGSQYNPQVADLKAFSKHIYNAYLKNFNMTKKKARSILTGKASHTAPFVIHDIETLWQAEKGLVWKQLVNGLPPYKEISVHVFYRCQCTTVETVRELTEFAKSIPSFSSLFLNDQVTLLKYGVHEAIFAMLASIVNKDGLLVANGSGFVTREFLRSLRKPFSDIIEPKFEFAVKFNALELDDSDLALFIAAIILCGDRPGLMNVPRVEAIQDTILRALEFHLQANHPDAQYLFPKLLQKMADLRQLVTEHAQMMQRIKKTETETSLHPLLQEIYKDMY
UniProt O75469, whole entry: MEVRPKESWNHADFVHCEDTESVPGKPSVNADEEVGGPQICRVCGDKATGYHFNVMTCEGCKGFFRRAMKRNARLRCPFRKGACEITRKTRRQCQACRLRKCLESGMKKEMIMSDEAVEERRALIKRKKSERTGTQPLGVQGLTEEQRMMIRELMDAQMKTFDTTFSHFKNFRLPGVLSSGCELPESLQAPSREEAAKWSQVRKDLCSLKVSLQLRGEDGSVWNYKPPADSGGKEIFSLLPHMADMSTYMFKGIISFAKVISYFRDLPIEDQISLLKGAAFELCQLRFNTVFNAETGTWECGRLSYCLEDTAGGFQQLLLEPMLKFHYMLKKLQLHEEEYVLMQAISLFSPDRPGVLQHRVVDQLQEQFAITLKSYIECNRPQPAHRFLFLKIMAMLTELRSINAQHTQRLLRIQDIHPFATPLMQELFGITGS
UniProt P13631, whole entry: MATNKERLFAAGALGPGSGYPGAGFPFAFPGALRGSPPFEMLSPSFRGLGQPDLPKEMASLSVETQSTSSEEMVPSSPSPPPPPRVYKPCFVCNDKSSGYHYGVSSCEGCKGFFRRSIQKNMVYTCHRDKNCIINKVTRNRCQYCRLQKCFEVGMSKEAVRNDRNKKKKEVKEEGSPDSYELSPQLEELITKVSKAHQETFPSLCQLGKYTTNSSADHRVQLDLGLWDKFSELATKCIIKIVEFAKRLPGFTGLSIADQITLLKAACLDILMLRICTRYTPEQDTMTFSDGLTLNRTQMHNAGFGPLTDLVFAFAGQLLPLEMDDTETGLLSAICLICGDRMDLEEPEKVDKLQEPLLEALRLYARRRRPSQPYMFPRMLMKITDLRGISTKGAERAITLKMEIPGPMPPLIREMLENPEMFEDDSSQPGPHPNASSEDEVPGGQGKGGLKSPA
UniProt P10826, whole entry: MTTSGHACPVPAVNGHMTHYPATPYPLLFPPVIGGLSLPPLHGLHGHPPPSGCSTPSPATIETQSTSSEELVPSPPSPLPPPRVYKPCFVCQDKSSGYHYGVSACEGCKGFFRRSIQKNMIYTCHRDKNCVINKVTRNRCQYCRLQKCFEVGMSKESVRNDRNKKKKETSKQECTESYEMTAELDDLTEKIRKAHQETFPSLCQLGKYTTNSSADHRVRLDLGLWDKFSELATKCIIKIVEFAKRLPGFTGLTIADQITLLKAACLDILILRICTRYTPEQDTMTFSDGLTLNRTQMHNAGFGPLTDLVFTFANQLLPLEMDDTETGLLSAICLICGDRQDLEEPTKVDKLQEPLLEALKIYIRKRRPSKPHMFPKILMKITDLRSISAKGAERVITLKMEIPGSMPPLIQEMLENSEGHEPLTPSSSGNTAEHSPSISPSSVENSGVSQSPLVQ
UniProt P10276, whole entry: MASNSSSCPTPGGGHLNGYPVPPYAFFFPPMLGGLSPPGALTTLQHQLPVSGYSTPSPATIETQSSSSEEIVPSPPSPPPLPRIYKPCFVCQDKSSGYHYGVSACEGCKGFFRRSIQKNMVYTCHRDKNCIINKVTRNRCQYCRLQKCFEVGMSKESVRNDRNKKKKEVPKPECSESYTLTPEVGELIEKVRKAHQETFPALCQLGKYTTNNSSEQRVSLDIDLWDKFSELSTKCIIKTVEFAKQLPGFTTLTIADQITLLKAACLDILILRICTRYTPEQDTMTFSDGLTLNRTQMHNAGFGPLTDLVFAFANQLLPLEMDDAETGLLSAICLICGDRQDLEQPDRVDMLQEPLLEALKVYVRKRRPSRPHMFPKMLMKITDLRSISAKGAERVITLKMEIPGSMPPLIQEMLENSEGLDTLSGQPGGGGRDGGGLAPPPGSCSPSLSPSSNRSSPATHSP
UniProt P37231, whole entry: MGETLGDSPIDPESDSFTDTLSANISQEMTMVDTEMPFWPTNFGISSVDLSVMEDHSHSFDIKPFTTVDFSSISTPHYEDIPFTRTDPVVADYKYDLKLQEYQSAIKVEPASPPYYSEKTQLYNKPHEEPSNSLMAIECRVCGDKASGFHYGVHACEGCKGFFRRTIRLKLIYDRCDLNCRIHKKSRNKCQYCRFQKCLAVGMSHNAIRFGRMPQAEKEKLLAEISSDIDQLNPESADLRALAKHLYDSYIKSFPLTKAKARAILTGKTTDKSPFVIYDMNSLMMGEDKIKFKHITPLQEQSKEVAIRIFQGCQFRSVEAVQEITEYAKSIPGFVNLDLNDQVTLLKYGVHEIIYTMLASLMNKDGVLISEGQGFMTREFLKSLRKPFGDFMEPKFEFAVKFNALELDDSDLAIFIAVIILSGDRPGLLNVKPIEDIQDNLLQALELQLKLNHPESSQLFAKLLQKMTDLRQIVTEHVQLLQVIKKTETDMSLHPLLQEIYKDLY

What was measured:
[1] = molecular target: Nuclear respiratory factor 1 (Homo sapiens) (UniProt Q16656); experiment: ATG_NRF1_CIS: Attagene CIS-FACTORIAL HepG2 Assay for human Nuclear Respiratory Factor 1 (NRF1) Orphan Gene (AID 2282987); conditions: HepG2 NRF1 cis-element reporter, Attagene multiplex; actives raise or lower the signal
How it was run: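 HepG2 cells transiently transfected with multiple cis-regulated reporter units, exposed 24 h. Reporter mRNAs measured by RT-PCR, fluorescent labelling, HpaI digestion and capillary electrophoresis; bidirectional fitting against DMSO.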

[2] = ATG_NFI_CIS: Attagene CIS-FACTORIAL HepG2 Assay for human Nuclear Factor I (NFI) (AID 2282989); conditions: HepG2 cis-regulatory reporter, NFI response element transcription; actives raise or lower the signal
How it was run: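 Read-out: reporter mRNA via RT-PCR plus capillary electrophoresis with fluorescence detection. Transiently transfected HepG2 (endogenous TF activity on cis promoters), 24 h compound exposure; gain or loss of signal fitted against DMSO.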

[3] = molecular target: Myc proto-oncogene protein (Homo sapiens) (UniProt P01106); experiment: ATG_Myc_CIS: Attagene CIS-FACTORIAL HepG2 Assay for human Myelocytomatosis (Myc) Proto-Oncogene Transcription Factor (AID 2282990); conditions: HepG2, Attagene cis-reporter transcription factor activity; actives raise or lower the signal
How it was run: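 HepG2 cells transiently transfected with multiple cis-promoter-driven reporter transcription units, so endogenous TF activity is read. After 24 h compound exposure, reporter mRNA was quantified by RT-PCR, 6-FAM labelling, HpaI digestion and capillary electrophoresis; bidirectional fit versus DMSO.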

[4] = ATG_NF_kB_CIS: Attagene CIS-FACTORIAL HepG2 Assay for human Nuclear Factor Kappa B (NF-kB) (AID 2282991); conditions: HepG2 Attagene cis-factorial NF-kB reporter mRNA; actives raise or lower the signal
How it was run: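 HepG2 cells transfected with cis-promoter-driven reporter units, so endogenous transcription factor activity is measured. Reporter mRNA quantified 24 h after dosing by RT-PCR and capillary electrophoresis, with bidirectional fitting against DMSO.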

[5] = ATG_NRF2_ARE_CIS: Attagene CIS-FACTORIAL HepG2 Assay for human Nuclear Factor Erythroid 2 Related Factor 2 (NFR2) response to Antioxidant Response Elements (ARE) (AID 2282992); conditions: HepG2 Attagene ARE/NRF2 reporter, transcription factor activity; actives raise or lower the signal;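 as to AC50: reporter mRNA level measured by RT-PCR and capillary electrophoresis fluorescence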
How it was run: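 Fluorescence intensity of reporter-specific cDNA fragments, separated by capillary electrophoresis, reflects mRNA induction in transfected HepG2 cells at 24 h. Activity is fitted bidirectionally, DMSO serving as baseline.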

[6] = ATG_Oct_MLP_CIS: Attagene CIS-FACTORIAL HepG2 Assay for human Octamer-Binding Transcription Factor (Oct) (AID 2282993); conditions: HepG2 Attagene cis-factorial Oct reporter, mRNA; actives raise or lower the signal
How it was run: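 Read-out: reporter mRNA via RT-PCR plus capillary electrophoresis of 6-FAM-labelled fragments. Transiently transfected HepG2, 24 h exposure, endogenous TF activity on cis elements. Gain or loss of signal fitted relative to DMSO.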

[7] = molecular target: Cellular tumor antigen p53 (Homo sapiens) (UniProt P04637); experiment: ATG_p53_CIS: Attagene CIS-FACTORIAL HepG2 Assay for human p53 Transcription Factor (AID 2282994); conditions: HepG2 p53 cis-element reporter, Attagene mRNA; actives raise or lower the signal
How it was run: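 Transiently transfected HepG2 (multiple cis reporter transcription units); exposure 24 h; reporter RNA via RT-PCR, 6-FAM extension, 2 h HpaI digest at 37 C, CE detection; DMSO baseline.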

[8] = BSK_3C_TissueFactor: BioMAP Diversity Plus: 3C Assay for Tissue Factor Biomarker Activity (AID 2282997); conditions: BioMAP 3C HUVEC, tissue factor biomarker readout; actives raise or lower the signal
How it was run: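 Cells used were primary human umbilical vein endothelial cells. They were dosed with chemical, and after 24 h Tissue Factor was quantified by ELISA. Curves were fitted bidirectionally with DMSO as baseline.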

[9] = BSK_3C_uPAR: BioMAP Diversity Plus: 3C Assay for Urokinase-type plasminogen activator receptor (uPAR) Biomarker Activity (AID 2282998); conditions: BioMAP 3C HUVEC, uPAR biomarker ELISA; actives raise or lower the signal
How it was run: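 HUVEC primary cells; 24 h post-dose; uPAR by ELISA; gain or loss of signal fitted bidirectionally vs DMSO baseline.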

[10] = BSK_3C_VCAM1: BioMAP Diversity Plus: 3C Assay for Vascular cell adhesion molecule 1 (VCAM1) Biomarker Activity (AID 2282999); conditions: BioMAP 3C HUVEC, VCAM1 ELISA, cytokine-stimulated; actives raise or lower the signal
How it was run: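 Vascular primary endothelium (human umbilical vein) was exposed to chemicals and assayed 24 h later. VCAM-1 levels came from ELISA, with DMSO serving as baseline for bidirectional fitting.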

[11] = BSK_4H_Eotaxin3: BioMAP Diversity Plus: 4H Assay for Eotaxin 3 Biomarker Activity (AID 2283000); conditions: actives raise or lower the signal; primary human endothelial cells (HUVEC);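 also: CCL26 protein level quantified by ELISA in parallel with SRB cytotoxicity check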
How it was run: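 Endothelial primary cells (human umbilical vein) exposed to compound for 24 h. ELISA detection of Eotaxin-3.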

[12] = molecular target: human Peroxisome Proliferator-activated Receptor alpha (PPARa), PPARA (gene 5465) (UniProt Q07869); experiment: ATG_PPARa_TRANS: Attagene TRANS-FACTORIAL HepG2 Assay for human Peroxisome Proliferator-activated Receptor alpha (PPARa) (AID 2283001; active = hit-call score of the fitted dose curve at least 0.9, where 1 is the maximum)
How it was run: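 Cells (HepG2) are transfected with multiple reporter transcription units, exposed to chemical for 24 h, then total RNA is reverse-transcribed and amplified. Labelled products are quantified by capillary electrophoresis; induction is referenced to DMSO.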

[13] = molecular target: human Peroxisome Proliferator-activated Receptor delta (PPARd), PPARD (gene 5467) (UniProt Q03181); experiment: ATG_PPARd_TRANS: Attagene TRANS-FACTORIAL HepG2 Assay for human Peroxisome Proliferator-activated Receptor delta (PPARd) (AID 2283002; active = hit-call score of the fitted dose curve at least 0.9, where 1 is the maximum)
How it was run: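 HepG2 cells transiently transfected with multiplexed GAL4-UAS reporter units and exogenous chimeric NR-Gal4 proteins; 24 h compound exposure. Reporter mRNA measured by RT-PCR, 6-FAM labelling, HpaI digestion and capillary electrophoresis; gain of signal versus DMSO.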

[14] = read-out: Intercellular Adhesion Molecule 1 (ICAM1), ICAM1 (gene 3383); experiment: BSK_3C_ICAM1: BioMAP Diversity Plus: 3C Assay for Intercellular Adhesion Molecule 1 (ICAM1) Biomarker Activity (AID 2283003); conditions: actives raise or lower the signal; primary human endothelial cells (HUVEC)
How it was run: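 Chemicals are dosed onto primary human umbilical vein endothelium (3C system). After 24 h, ICAM-1 is measured by ELISA, and responses are fitted bidirectionally relative to DMSO.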

[15] = BSK_3C_Proliferation: Cell Proliferation Assessment in the BioMAP Diversity Plus: 3C Assay (AID 2283006); conditions: primary human endothelial cells (HUVEC);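 as to AC50: potency may reflect either rise or fall in cell number versus DMSO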
How it was run: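 Cells (human umbilical vein endothelial, sub-confluent) receive test chemical; after 48 h they are fixed in 10% trichloroacetic acid, stained with 0.1% SRB and read at 560 nm. Activity is referenced to DMSO, fitting increases and decreases.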

[16] = molecular target: Nuclear receptor subfamily 1 group I member 2 (Homo sapiens) (UniProt O75469); experiment: ATG_PXR_TRANS: Attagene TRANS-FACTORIAL HepG2 Assay for human Pregnane X Receptor (PXR) (AID 2283008; active = hit-call score of the fitted dose curve at least 0.9, where 1 is the maximum)
How it was run: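 Transient HepG2 transfectants carrying multiplexed reporter transcription units; PXR activity read through a Gal4 chimera. 24 h exposure. RT-PCR/CE fluorescence; upward curve fit referenced to DMSO.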

[17] = molecular target: human Retinoic Acid Receptor gamma (RARg), RARG (gene 5916) (UniProt P13631); experiment: ATG_RARg_TRANS: Attagene TRANS-FACTORIAL HepG2 Assay for human Retinoic Acid Receptor gamma (RARg) (AID 2283009; active = hit-call score of the fitted dose curve at least 0.9, where 1 is the maximum)
How it was run: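 TRANS format measured activity of exogenous NR-GAL4 fusion (RARg) in transfected HepG2 liver cells after 24 h dosing. Induced reporter RNA was detected by RT-PCR/capillary electrophoresis fluorescence, analysed in the positive direction against DMSO.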

[18] = molecular target: human Retinoic Acid Receptor beta (RARb), RARB (gene 5915) (UniProt P10826); experiment: ATG_RARb_TRANS: Attagene TRANS-FACTORIAL HepG2 Assay for human Retinoic Acid Receptor beta (AID 2283004; active = hit-call score of the fitted dose curve at least 0.9, where 1 is the maximum)
How it was run: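 HepG2, transient MRTU transfection, NR–Gal4 chimera, 24 h treatment; RT-PCR plus CE fluorescence detection of reporter mRNA; gain of signal vs DMSO.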

[19] = molecular target: Retinoic acid receptor alpha (Homo sapiens) (UniProt P10276); experiment: ATG_RARa_TRANS: Attagene TRANS-FACTORIAL HepG2 Assay for human Retinoic Acid Receptor alpha (RARa) (AID 2283005; active = hit-call score of the fitted dose curve at least 0.9, where 1 is the maximum)
How it was run: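 HepG2 cells transiently transfected with multiple reporter units expressing chimeric RARα-GAL4 fusion, with GAL4-UAS-driven reporters. After 24 h compound exposure, reporter mRNA induction quantified by RT-PCR and capillary electrophoresis with fluorescent labeling; gain-of-signal fitted relative to DMSO control.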

[20] = molecular target: Peroxisome proliferator-activated receptor gamma (Homo sapiens) (UniProt P37231); experiment: ATG_PPARg_TRANS: Attagene TRANS-FACTORIAL HepG2 Assay for human Peroxisome Proliferator-activated Receptor-gamma (PPARg) (AID 2283007; active = hit-call score of the fitted dose curve at least 0.9, where 1 is the maximum)
How it was run: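 HepG2 cells are transiently transfected with GAL4-UAS reporter units driven by chimeric NR-Gal4 fusions and dosed for 24 h. Reporter mRNA is quantified by RT-PCR, 6-FAM labelling, HpaI digestion and capillary electrophoresis. Induction is scored against DMSO.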

Measured: AC50

O=[N+]([O-])c1ccccc1[N+](=O)[O-]
active: [5] 7.39 µM | [8] 17.9 µM | [10] 10.3 µM | [15] 3.97 µM
not listed: [18] | [19] | [20]
inactive: all other assays above

ClCCOP(OCCCl)OCCCl
inactive: [1] | [2] | [3] | [4] | [5] | [6] | [7] | [18] | [16]

ClCCNCCCl
not listed: [8] | [9] | [10] | [11] | [12] | [14] | [15] | [16]
inactive: all other assays above

CCOP(=O)(Cl)Cl
inactive: [1] | [2] | [3] | [4] | [5] | [6] | [7] | [12]

CC(C)OP(OC(C)C)OC(C)C
not listed: [18]
inactive: all other assays above
